Results as given in paper PMC7341485 (Chemical research in toxicology, 2019).

What was measured:
[1] = test system: TGFβ1-induced SMAD3 phosphorylation (pSMAD3 Ser 423/425)
[2] = test system: human embryonic H9-derived neural stem cells (NSCs)

| SMILES | effect on TGFβ1-induced SMAD3 phosphorylation (pSMAD3 level), in words [1] | cytotoxicity in NSCs at 5 h [2] | cytotoxicity in NSCs at 5 h ([2]; 5 h treatment) | other results |
| --- | --- | --- | --- | --- |
| CN1C(=O)N(c2ccccc2Br)Cc2cnc(Nc3ccc4c(c3)OCC(CO)O4)nc21 (stereo not drawn) [PharmaGSID_48519] | inhibited SMAD3 phosphorylation | not at 5 h | – | concentration eliminating / completely abolishing TGFβ1-elevated pSMAD3 level [1]: 15 μM |
| C[C@@]12C(=O)OC(=O)[C@]1(C)[C@H]1CC[C@@H]2O1 [cantharidin, reference compound] | pSMAD3 level was decreased | – | – | – |
| Cc1nc(Nc2ncc(C(=O)Nc3c(C)cccc3Cl)s2)cc(N2CCN(CCO)CC2)n1 [dasatinib] | – | – | not at 5 h | effect on TGFβ1-induced SMAD3 phosphorylation (pSMAD3 level), in words ([1]; HepG2, 1 h, Figure 4): pSMAD3 level was decreased |
| CN1CC[C@H](c2c(O)cc(O)c3c(=O)cc(-c4ccccc4Cl)oc23)[C@H](O)C1 [flavopiridol hydrochloride] | – | – | not at 5 h | cytotoxicity in NSCs at 24 h ([2]; 24 h treatment): invoked NSC cytotoxicity |
| CC(C)n1nc(-c2cc3cc(O)ccc3[nH]2)c2c(N)ncnc21 [pp242] | – | not at 5 h | – | – |

Where a name gives a salt, the structure may show the parent alone. Read-outs that look alike come from different tables or passages of the source.
